# Values of other authors as cited in patent US9433616B2, “Methods and compositions for decreasing saliva production” (priority 2005, dated 2016).
# Test system: muscarinic receptors in the muscles of the eye
# Details: in vivo; cited from earlier work
smiles,measurement,value
"CCN(Cc1ccncc1)C(=O)C(CO)c1ccccc1 (centres unmarked) [tropicamide, N-ethyl-N-(4-pyridylmethyl) tropamide]",recovery from mydriasis,3 to 8 h
same,time to mydriasis after instillation,15 to 20 min
